{"sequences": {"note": "The chains behind the UniProt entries cited, without tags or fusion partners.", "UniProt P20309, whole entry": "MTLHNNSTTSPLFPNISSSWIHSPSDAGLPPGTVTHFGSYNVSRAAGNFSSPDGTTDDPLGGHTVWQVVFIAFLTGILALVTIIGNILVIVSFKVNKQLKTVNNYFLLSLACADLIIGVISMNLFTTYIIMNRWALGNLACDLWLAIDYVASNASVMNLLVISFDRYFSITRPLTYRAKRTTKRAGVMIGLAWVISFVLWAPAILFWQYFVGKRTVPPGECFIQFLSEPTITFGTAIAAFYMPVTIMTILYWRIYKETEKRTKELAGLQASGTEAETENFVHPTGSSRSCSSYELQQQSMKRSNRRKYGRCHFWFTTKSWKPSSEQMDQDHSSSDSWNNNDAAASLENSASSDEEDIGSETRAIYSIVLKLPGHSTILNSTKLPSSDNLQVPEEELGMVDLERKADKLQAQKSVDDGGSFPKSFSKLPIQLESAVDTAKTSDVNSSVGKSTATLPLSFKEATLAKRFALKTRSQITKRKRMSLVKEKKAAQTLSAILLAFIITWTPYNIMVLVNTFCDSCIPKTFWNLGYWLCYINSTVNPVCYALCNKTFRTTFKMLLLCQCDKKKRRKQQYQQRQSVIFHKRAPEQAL"}, "source": "patent US8207193B2", "about": "(priority 2006, dated 2012)", "target": "human muscarinic acetylcholine M3 receptor (M3-ACh) (Homo sapiens, UniProt P20309)", "conditions": "M3, Table 3, C8", "note": "This is a selection: effects in other tests are not listed, and their absence says nothing."}
{"smiles": "O=C(O[C@H]1CN2CCC1CC2)C1(c2ccccc2)CCCCCCC1", "values": [{"measurement": "pIC50 of comparative compounds containing a cyclooctyl (C8) ring in place of cycloheptyl (C7)", "result": "9.1 (Comp Ex. 7)"}]}
